{"source": "patent US20260382616A1", "about": "“TREATMENT METHODS FOR SUBJECTS WITH NON-SMALL CELL LUNG CANCER HAVING AN ABERRATION IN EGFR” (published 2026)", "origin": "cited, not measured here", "details": "cited from earlier work; for Diarrhea: any grade, comparison with other ex20ins-directed therapies", "data": [{"smiles": "C=CC(=O)N1CCC(Oc2cc3c(Nc4ccc(Cl)c(Cl)c4F)ncnc3cc2OC)CC1", "values": [{"measurement": "Diarrhea", "value": "92 % of patients"}, {"measurement": "Grade ≥3 diarrhea", "setting": "human, in vivo", "value": "over 20 % of patients"}, {"measurement": "Skin and gastrointestinal toxicities", "setting": "human, in vivo", "value": "high rates of skin and gastrointestinal toxicities"}, {"measurement": "Dose reduction", "setting": "starting dose 16 mg daily", "value": "65 % of patients"}]}, {"smiles": "C=CC(=O)Nc1cc(Nc2ncc(C(=O)OC(C)C)c(-c3cn(C)c4ccccc34)n2)c(OC)cc1N(C)CCN(C)C", "values": [{"measurement": "Diarrhea, grade ≥3", "setting": "160 mg", "value": 16, "unit": "%"}, {"measurement": "Rash", "setting": "160 mg", "value": 45, "unit": "%"}, {"measurement": "TRAEs leading to dose reduction", "setting": "160 mg", "value": "21 % of patients"}, {"measurement": "TRAEs leading to treatment discontinuation", "setting": "160 mg", "value": "10 % of patients"}, {"measurement": "Grade ≥3 diarrhea", "setting": "human, in vivo", "value": "over 20 % of patients"}, {"measurement": "Adverse effects caused", "setting": "patients, background", "value": "frequent rash and diarrhea"}]}, {"smiles": "C=CC(=O)Nc1cc(Nc2nccc(-c3cn(C)c4ccccc34)n2)c(OC)cc1N(C)CCN(C)C", "values": [{"measurement": "Acneiform rash, any grade", "setting": "160 mg daily", "value": 38, "unit": "%"}, {"measurement": "Fatigue, any grade", "setting": "160 mg daily", "value": 67, "unit": "%"}, {"measurement": "Grade 3 gastrointestinal or dermatologic toxicities", "setting": "160 mg daily", "value": "no cases"}]}, {"smiles": "C=CC(=O)Nc1cc(Nc2nccc(Nc3cc(Cl)c(F)cc3C(C)(C)O)n2)c(OC)cc1N1CC[C@@H](N(C)C)C1", "values": [{"measurement": "Diarrhea", "value": "54 % of patients"}]}]}
